From patent publication US20110150980A1, “CGRP ANALOG” (VasoGenix Pharmaceuticals, Inc., priority 2009, published 2011)

Legend:
[1] = system: sedated Non Human Primate; assay: IV infusion in the sedated Non Human Primate: blood pressure and heart rate (Example 1); format: in vivo
[2] = system: non-sedated, non-naïve cynomolgus monkeys; assay: Intravenous infusion in non-sedated, telemeterized non-human primates: blood pressure, heart rate, ECG (Example 2); format: in vivo
Experimental: Peptides were synthesized as in Example 1. The test articles of human α-CGRP, β-CGRP and VSXP325 were supplied as stock solutions and formulated into dosing solutions for intravenous infusions at 0.016 ug/kg/min and 0.024 ug/kg/min. Two non-naïve, telemeterized, male non-human primates (NHP “a” and “b”) were used for the test article(s) dosing regimen. Test articles included α-CGRP, β-CGRP and Peptide V (also known as VSXP325, Structure V, Peptide V, Analog V and Compound V). Following a stabilized baseline period of approximately 30 minutes, one of the test article(s) was administered as an intravenous infusion via a femoral vein vascular access port (VAP) using a Pegasus PCA infusion pump for a period of 30 or 60 minutes. A minimum period of 30 minutes was allotted for the hemodynamic parameters to return to baseline prior to the next test article infusion dose. The process was repeated for each of the stated test articles. The same procedure was followed for the 1 hour infusion with 1 hour allotted for parameters to return to base line.
The non-human primates were previously surgically prepared with telemetry transducers, type TL11M2-D70-PCT (Data Sciences International). The acquisition and analysis was done using a Ponemah (Version 4.8 or higher) data acquisition and analysis system installed on the hard drive of a computer. The computer was equipped with disk drive for file back up on readable write-once only optical media (CD-R or DVD-R).
Prior to the first dose administration, baseline data was acquired. For each subsequent dose, data was collected for approximately 30 min postdose. Prior to the next dose, the hemodynamic parameters were allowed to return to a stable baseline±10%.
Systolic blood pressure (SYS or SBP), diastolic blood pressure (DBP), mean arterial pressure (MAP), heart rate (HR), and all lead II ECG variables were recorded. The telemetry data files were transferred to an Excel (MicroSoft® Version 2003) spreadsheet. The following variables from the lead II ECG were measured: PR interval, QRS duration, QT interval, RR interval, and QTcF interval (calculated as
A visual inspection of the entire collected ECG waveform for disturbances in rhythm and waveform morphology was performed. The data for selected time points were analyzed and assessed on completion of data acquisition and were the average of at least 30 beats (ABP and ECG) of data at the selected analysis time, when possible. The time points for both hemodynamic and ECG data analysis were an initial 30 min baseline prior to the first dose, at a 10 min during each infusion postdose interval relative to end of each infusion, and time points prior to the next test article infusion for each test compound.
This study assessed the cardiovascular effects of the CGRP analog Peptide V (also known as VSXP325, Structure V, Analog V and Compound V) and β-CGRP when compared to the positive control compound human α-CGRP on blood pressure, heart rate, and lead II electrocardiogram in two non-sedated, non-naïve cynomolgus monkeys. Non-human primates were selected because they have the same RAMP 1-CGRP receptor complex as humans.

[3] = system: rats; conditions: cited from earlier work
[4] = NHP a, dose day 1, during 30 minute infusions of 0.016 ug/kg/min
[5] = NHP a, dose day 2, during 30 minute infusions of 0.024 ug/kg/min
[6] = NHP a, dose day 3, during 30 minute infusions of 0.024 ug/kg/min
[7] = NHP a, dose day 3, during 1 hour infusion of 0.024 ug/kg/min
[8] = NHP b, dose day 1, during 30 minute infusions of 0.016 ug/kg/min
[9] = NHP b, dose day 2, during 30 minute infusions of 0.024 ug/kg/min
[10] = NHP b, dose day 3, during 30 minute infusions of 0.024 ug/kg/min
[11] = NHP b, dose day 3, during 1 hour infusion of 0.024 ug/kg/min
[12] = average of a1, b1, during 30 minute infusions of 0.016 ug/kg/min
[13] = average of a 2, b 2, a 3, b 3, during 30 minute infusions of 0.024 ug/kg/min
[14] = average of a3, b3, during 1 hour infusion of 0.024 ug/kg/min

ACDTATCVTHRLAGLLSRSGGVVKNNFVPTNVGSKAF-NH2 [αCGRP]
Heart rate (HR) increases ([1]; at the 8 ng dose): not | Heart rate (HR) effect ([1]; at the 28 ng dose): increases were found | Percent change in HR, a1 [2, 4]: −4.9% | Percent change in mean BP, a1 [2, 4]: −6.6% | Percent change in systolic BP, a1 [2, 4]: −9.7% | Percent change in HR, a 2 [2, 5]: −4.2% | Percent change in mean BP, a 2 [2, 5]: −15.2% | Percent change in systolic BP, a 2 [2, 5]: −12.2% | Percent change in HR, a 3 [2, 6]: −14.8% | Percent change in mean BP, a 3 [2, 6]: −16.0% | Percent change in systolic BP, a 3 [2, 6]: −11.6% | Percent change in HR at 30 minutes, a3 [2, 7]: −14.8% | Percent change in HR at 60 minutes, a3 1 hr [2, 7]: 9.3% | Percent change in mean systolic BP at 30 minutes, a3 [2, 7]: −16.0% | Percent change in mean systolic BP at 60 minutes, a3 1 hr [2, 7]: −1.0% | Percent change in systolic BP at 30 minutes, a3 [2, 7]: −11.6% | Percent change in systolic BP at 60 minutes, a3 1 hr [2, 7]: −2.3% | Percent change in HR, b1 [2, 8]: −16.3% | Percent change in mean BP, b1 [2, 8]: −29.8% | Percent change in systolic BP, b1 [2, 8]: −20.3% | Percent change in HR, b 2 [2, 9]: 6.3% | Percent change in mean BP, b 2 [2, 9]: −25.7% | Percent change in systolic BP, b 2 [2, 9]: −8.1% | Percent change in HR, b 3 [2, 10]: 2.0% | Percent change in mean BP, b 3 [2, 10]: −6.4% | Percent change in systolic BP, b 3 [2, 10]: −1.8% | Percent change in HR at 30 minutes, b3 [2, 11]: 2.0% | Percent change in HR at 60 minutes, b3 1 hr [2, 11]: −1.0% | Percent change in mean systolic BP at 30 minutes, b3 [2, 11]: −6.4% | Percent change in mean systolic BP at 60 minutes, b3 1 hr [2, 11]: −6.8% | Percent change in systolic BP at 30 minutes, b3 [2, 11]: −1.8% | Percent change in systolic BP at 60 minutes, b3 1 hr [2, 11]: −10.7% | Percent change in mean HR, a 2 ([2]; Table 14, NHP a, dose day 2, during 30 minute infusions of 0.024 ug/kg/min): −4.2% | Percent change in mean HR, a 3 ([2]; Table 14, NHP a, dose day 3, during 30 minute infusions of 0.024 ug/kg/min): −14.8% | Percent change in mean HR, b 2 ([2]; Table 14, NHP b, dose day 2, during 30 minute infusions of 0.024 ug/kg/min): 6.3% | Percent change in mean HR, b 3 ([2]; Table 14, NHP b, dose day 3, during 30 minute infusions of 0.024 ug/kg/min): 2.0% | Percent change in mean HR, HR ([2]; Table 14, average of a 2, b 2, a 3, b 3, during 30 minute infusions of 0.024 ug/kg/min): −2.7% | Percent change in mean HR, a1 ([2]; Table 16, NHP a, dose day 1, during 30 minute infusions of 0.016 ug/kg/min): −4.9% | Percent change in mean HR, b1 ([2]; Table 16, NHP b, dose day 1, during 30 minute infusions of 0.016 ug/kg/min): −16.3% | Percent change in mean HR, HR ([2]; Table 16, average of a1, b1, during 30 minute infusions of 0.016 ug/kg/min): −10.6% | Percent change in mean HR at 30 minutes, a3 ([2]; Table 24, NHP a, dose day 3, during 1 hour infusion of 0.024 ug/kg/min): −14.8% | Percent change in mean HR at 30 minutes, b3 ([2]; Table 24, NHP b, dose day 3, during 1 hour infusion of 0.024 ug/kg/min): 2.0% | Percent change in mean HR at 30 minutes, HR T30 ([2]; Table 24, average of a3, b3, during 1 hour infusion of 0.024 ug/kg/min): −6.4% | Percent change in mean HR at 60 minutes, a3 1 hr ([2]; Table 25, NHP a, dose day 3, during 1 hour infusion of 0.024 ug/kg/min): 9.3% | Percent change in mean HR at 60 minutes, b3 1 hr ([2]; Table 25, NHP b, dose day 3, during 1 hour infusion of 0.024 ug/kg/min): −1.0% | Percent change in mean HR at 60 minutes, HR T60 ([2]; Table 25, average of a3, b3, during 1 hour infusion of 0.024 ug/kg/min): 4.2% | Percent change in HR, HR [2, 12]: −10.6% | Percent change in mean BP, BP [2, 12]: −18.2% | Percent change in systolic BP, BP [2, 12]: −15.0% | Percent change in HR, HR [2, 13]: −2.7% | Percent change in mean BP, BP [2, 13]: −15.8% | Percent change in systolic BP, BP [2, 13]: −8.4% | Percent change in HR at 30 minutes, HR T30 [2, 14]: −6.4% | Percent change in HR at 60 minutes, HR T60 [2, 14]: 4.2% | Percent change in mean systolic BP at 30 minutes, BP T30 [2, 14]: −11.2% | Percent change in mean systolic BP at 60 minutes, BP T60 [2, 14]: −3.9% | Percent change in systolic BP at 30 minutes, T30 [2, 14]: −6.7% | Percent change in systolic BP at 60 minutes, T60 [2, 14]: −6.5% | heart rate and blood pressure effect ([3]; 19 ng/kg/min): tachycardia accompanied by a fall in blood pressure | hemodynamic effects of infusions, alpha vs beta CGRP ([3]; infusions): more significant hemodynamic effects compared to human beta CGRP
